Assay results taken from PubChem BioAssay AID1322 (NMMLSC, 2008).
Only a part is listed here, and it is no random draw. The source made the active and inactive calls. How the calls were made is not given here.

Sequences of proteins named here, by UniProt entry; tags and fusion partners are left off.
UniProt Q07817, whole entry, looked up: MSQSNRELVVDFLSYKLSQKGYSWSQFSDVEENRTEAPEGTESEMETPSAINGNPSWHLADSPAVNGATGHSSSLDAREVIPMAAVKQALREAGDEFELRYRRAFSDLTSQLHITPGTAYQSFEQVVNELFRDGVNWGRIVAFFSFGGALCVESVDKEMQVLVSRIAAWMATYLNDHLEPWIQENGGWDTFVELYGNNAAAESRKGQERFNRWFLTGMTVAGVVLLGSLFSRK

Molecular target: Bcl-2-like protein 1 (Homo sapiens) (UniProt Q07817)
Experiment: Bim-Bcl-XL interaction inhibitors, potency, dose response, biochemical, multiplexed, bead flow cytometry, human Bcl-XL (AID 1322); further: test concentration not given here
Conditions: Bead-based flow cytometry, Bim peptide-Bcl-XL binding, MCF

`CCOP1(=S)c2c(C)nn(CCC#N)c2N=C(c2ccc(F)cc2)N1C` (stereo unspecified) was tested, and the inhibition was “inactive”.
